Earlier results as cited in patent publication US20030059826A1, “SOLUBLE COM[…]” (priority 1997, published 2003).

Target: anti-β-endorphin monoclonal antibody 3E7
Details: antibody binding to its natural epitope

In the case of “Tyr-Gly-Gly-Phe-Leu-OH [leucine enkephalin]”, the Kd is given as 7.1 nM.
